Values quoted from earlier work, collected in patent publication US20210369737A1, “PROSTATE FUNCTION SUPPORT FORMULA” (Innovus Pharmaceuticals, Inc., priority 2017, published 2021).

Copper gluconate
solubility in ethanol (ethanol): insoluble in ethanol
solubility in water (water): soluble in water
